Test results as given in PubChem BioAssay AID2216 (Broad Institute, 2009).
The list shows a part of the results, in another mix than the full data. Inconclusive results are not listed. The source made the active and inactive calls.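 How the source made its calls: active means more than half of the replicate wells show a fall in the fluorescence ratio signal beyond about 16% (limit read from the data, passing the limit was not always enough); inconclusive means exactly half of the replicate wells pass the set limit; inactive means fewer than half of replicates pass the limit.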

test system: Ran GTPase (GTP-bound) - importin-beta complex; assay: inhibitors of RanGTP-importin-beta interaction, primary screen, biochemical, FRET, CFP-Ran, YFP-importin-beta, homogeneous (AID 2216); settings: cell-free CFP-Ran/YFP-importin-beta FRET ratio; stronger effect = higher value; concentration not given here;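 further: 0% = DMSO wells and 100% = Ran loaded with GDP instead of GTP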

Q: Which inhibition does the source give for `Cc1cc(C)cc(OP(C)(=O)Nc2ccc(C)cc2C)c1` (configuration not stated) here?
A: Its inhibition is inactive: -1.89%.

Q: With `CP(=O)(OC12CC3CC(CC(C3)C1)C2)OC12CC3CC(CC(C3)C1)C2` as the compound, how does the inhibition read?
A: The inhibition was inactive: -2.7%.
